Source: patent US10351558B2, “Factor IXa inhibitors” (Merck Sharp & Dohme Corp., priority 2015, dated 2019)

Sequences of proteins named here, by UniProt entry; tags and fusion partners are left off. Residues count along the entry.
UniProt P00740, 227-461: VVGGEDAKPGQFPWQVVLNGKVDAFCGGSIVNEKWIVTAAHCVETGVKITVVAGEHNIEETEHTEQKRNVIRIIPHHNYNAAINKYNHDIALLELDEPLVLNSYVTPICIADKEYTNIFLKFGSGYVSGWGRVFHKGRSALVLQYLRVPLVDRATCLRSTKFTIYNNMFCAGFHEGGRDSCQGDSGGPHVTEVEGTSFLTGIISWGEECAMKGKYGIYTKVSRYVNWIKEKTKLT
UniProt P00740, 47-191 partner: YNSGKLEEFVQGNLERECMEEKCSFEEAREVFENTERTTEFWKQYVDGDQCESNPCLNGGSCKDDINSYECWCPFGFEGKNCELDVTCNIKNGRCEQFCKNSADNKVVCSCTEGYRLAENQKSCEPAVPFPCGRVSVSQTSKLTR

The molecules below were run against hFIXa (Homo sapiens (Human), UniProt P00740) (assay: Determination of inhibitory activity against Factor IXa (cleavage of fluorescent peptide CH3SO2-D-CHG-Gly-Arg-AFC)).
Assay type: biochemical

Compound	IC50
Cc1ccc2c(c1)c(C(N)=O)c1n2C[C@@](NC(=O)c2ccc(-n3cnnn3)cc2)(c2ccccc2)CC1 [Example 129]	10.8 nM
Cc1ccc2c3c([nH]c2c1)CCC(NC(=O)c1c(Cl)cc(-n2cnnc2)cc1Cl)(c1cc(F)cc(Cl)c1)C3 (stereo not shown) [Example 117]	6.85 nM
Cc1ccc2c3c([nH]c2c1)CCC(NC(=O)c1c(Cl)cc(-n2cnnc2)cc1Cl)(c1cc(F)cc(C(F)(F)F)c1)C3 (stereo not shown) [Example 121]	19.2 nM
Cc1ccc2c(c1)c(C(=O)O)c1n2C[C@@](NC(=O)c2ccc(-n3cnnc3)cc2)(c2ccccc2)CC1 [Example 128]	0.596 nM
COc1cc(-n2cnn(C)c2=O)ccc1C(=O)N[C@]1(c2ccccc2)CCc2c(C(=O)O)c3cc(C)ccc3n2C1 [Example 159]	5.97 nM
Cc1ccc2c(c1)c(C(N)=O)c1n2C[C@@](NC(=O)c2c(C)cc(-n3cnc(C)n3)cc2Cl)(c2ccccc2)CC1 [Example 163]	2.59 nM
Cc1ccc2c(c1)c(C(=O)C(F)F)c1n2C[C@@](NC(=O)c2ccc(-n3cnnc3)cc2Cl)(c2ccccc2)CC1 [Example 175]	1.99 nM
COc1cccc(C2(NC(=O)c3c(Cl)cc(-n4cnc(C)n4)cc3Cl)CCc3nn4cc(C)ccc4c3C2)c1 (stereo not shown) [Example 42]	2.92 nM
Cc1ccc(O)c2c3c(nn12)CC[C@@](C)(NC(=O)c1ccc(-n2cnc4cc(C(=O)N5CC(O)C5)ccc42)cc1Cl)C3 [Example 52]	16.1 nM
Cc1ccc(O)c2c3c(nn12)CCC(C)(NC(=O)c1ccc(-n2cnnc2)cc1)C3 (stereo not shown) [Example 1]	507 nM
Cc1ccc2c(c1)c(C(N)=O)c1n2C[C@@](NC(=O)c2ccc(-n3cnc(C)n3)cc2Cl)(c2ccccc2)CC1 [Example 148]	2.99 nM
COc1ncn(-c2ccc(C(=O)N[C@]3(c4ccccc4)CCc4c(C(=O)O)c5cc(C)ccc5n4C3)c(Cl)c2)n1 [Example 168]	0.636 nM
CC(=O)c1c2n(c3ccc(C)cc13)C[C@@](NC(=O)c1ccc(-n3cnnc3)cc1Cl)(c1ccccc1)CC2 (stereo in doubt) [Example 135, N-(10-acetyl-2-methyl-7-phenyl-6,7,8,9-tetrahydropyrido[1,2-a]indol-7-yl)-2-chloro-4-(4H-1,2,4-triazol-4-yl)benzamide]	2.01 nM

Continued, values first:

IC50	Compound
5.96 nM	COC(=O)c1ccc2c(c1)ncn2-c1ccc(C(=O)N[C@]2(C)CCc3nn4c(C)ccc(O)c4c3C2)c(Cl)c1 [Example 35]
16.1 nM	Cc1ccc2c(c1)nc1n2C[C@](C)(NC(=O)c2ccc(-n3cnc4cc(Cl)ccc43)cc2Cl)CC1 [Example 72]
16.6 nM	Cc1cc2[nH]c3c(c2cc1C)CC(NC(=O)c1ccc(-n2cnnc2)cc1Cl)(c1cccc(F)c1)CC3 (stereo not shown) [Example 111]
1.42 nM	Cc1ccc2c(c1)nc1n2C[C@@](NC(=O)c2ccc(-n3cnnc3)cc2Cl)(c2ccccc2)CC1 [Example 57]
13.8 nM	Cc1ccc2c(c1)nc1n2CC(NC(=O)c2ccc(-n3cnnc3)cc2Cl)(c2cccc(OC(F)(F)F)c2)CC1 (stereo not shown) [Example 106]
36.6 nM	Cc1ccc2c(c1)nc1n2C[C@](C)(NC(=O)c2ccc(-n3cnnc3)cc2Cl)CC1 [Example 55]
6.18 nM	COc1ncc(-c2c3n(c4ccc(C)cc24)C[C@@](NC(=O)c2ccc(-n4cnnc4)cc2Cl)(c2ccccc2)CC3)cc1F [Example 209]
18.3 nM	Cc1ccc2c(c1)c(S(C)(=O)=O)c1n2C[C@@](NC(=O)c2ccc(-n3cnnc3)cc2Cl)(c2ccccc2)CC1 [Example 177]
2.86 nM	Cc1ccc2c(c1)nc1n2C[C@@](NC(=O)c2ccc(-n3cnnc3)cc2Cl)(c2cccc(C(=O)O)c2)CC1 [Example 88]
6.26 nM	Cc1ccc2c(c1)c(-c1cncnc1)c1n2C[C@@](NC(=O)c2ccc(-n3cnnc3)cc2Cl)(c2ccccc2)CC1 [Example 176]
15 nM	Cc1ccc2c(c1)nc1n2CC(NC(=O)c2ccc(-n3cnc(C)n3)cc2Cl)(c2cncc(Cl)c2)CC1 (stereo not shown) [Example 95]
6.6 nM	Cc1ccc2c(c1)nc1n2C[C@@](NC(=O)c2ccc(-n3cnc(C)n3)cc2Cl)(c2ccc(C(=O)O)cc2)CC1 [Example 100]
